This note sets out measurements from patent US6500802B1, “Peptidyl-2-amino-1-hydroxyalkanesulfonic acid cysteine protease inhibitors” (Cephalon, Inc., priority 1997, dated 2002).

The conditions of this data set: pH 7.4.

As usually defined, the Solubility is the concentration that dissolves in the medium under given conditions. Low values mean a poorly soluble substance, high ones a readily soluble substance. With `CC(C)[C@H](NC(=O)OCc1ccccc1)C(=O)NC(Cc1ccccc1)C(O)S(=O)(=O)[O-].[Na+]` (stereo partly drawn) [Compound 1, Benzyloxycarbonyl-L-valyl-2-amino-1-hydroxy-3-phenylpropanesulfonic acid sodium Salt], the “Solubility” value stood at 8.2 mg/mL.
As to “Tetrahydroisoquinoline-2-carbonyl-L-leucyl-2-amino-1-hydroxy-3-phenylpropanesulfonic acid sodium Salt [Compound 2]”, the “Solubility” value came out at 37 mg/mL.
